Data on seven compounds can be found in US20240124398A1, “PHARMACEUTICALLY ACCEPTABLE SALTS OF PSILOCIN AND USES THEREOF” (priority 2021, published 2024).

This data set in a line: Solubility of psilocin salts in saline. To be noted: for Solubility (in words): comparison among forms or with freeform; for Solubility: single replicates.
Where [1] appears, read: Table 9, 25° C., 5 hours, maximum anticipated concentration 10 mg/mL free base.
Where [2] appears, read: Table 10 (updated), hydrochloride.

Values joined by “and” are separate entries in the source; they are usually repeats but may differ in a detail not shown here. Identical values can stand only once. Counter-ions that a name gives are not always drawn.

In the case of Psilocin tartrate [TAR Pattern 1], the “Solubility (in words)” value is on record as “high solubility”.

Usually Solubility stands for the dissolved amount per volume that the medium holds. Consider `CN(C)CCc1c[nH]c2cccc(O)c12.O=C(O)c1ccccc1O` [Psilocin salicylate SAL Pattern 1, Psilocin salicylate], for which the “Average Solubility” value runs as follows: under setting [1], 5.8 mg/mL; (Table 10 (updated)) 5.8 mg/mL. For the same compound, the Solubility by setting is: under setting [1], 5.5 mg/mL and 6.0 mg/mL; (Table 10 (updated)) 5.5 mg/mL and 6.0 mg/mL.

For the compound `CN(C)CCc1c[nH]c2cccc(O)c12.O=S(=O)(O)c1cccc2c(S(=O)(=O)O)cccc12` [Psilocin 1,5-napthalenedisulfonate NAP Pattern 1], under setting [1], the “Average Solubility” value was determined as 7.1 mg/mL; the Solubility was 7.0 mg/mL and 7.1 mg/mL. Besides, under “Table 10 (updated)”, the “Average Solubility” value was determined as 7.1 mg/mL; the Solubility is 7.0 mg/mL and 7.1 mg/mL.

For the compound `CN(C)CCc1c[nH]c2cccc(O)c12` [Psilocin hydrochloride HCl Pattern 1, Psilocin hydrochloride], under setting [2], the “Average Solubility” value was “Approx. 36 mg/mL” and the Solubility was found to be 36 mg/mL.

In the case of Psilocin succinate [SUC Pattern 3], the “Solubility (in words)” value was “high solubility”. Moreover, where the note is “Table 10 (updated)”, the “Average Solubility” value is recorded as over 27 mg/mL. Where the note is “Table 10 (updated), listed as Psilocin succinate SUC Pattern 3”, the Solubility was >28 mg/mL and >25 mg/mL.

Consider `CN(C)CCc1c[nH]c2cccc(O)c12` [Psilocin free base, Psilocin], for which the Solubility by setting is: under setting [1], 0.74 mg/mL; (Table 10 (updated)) 0.78 mg/mL and 0.74 mg/mL. Further, the “Average Solubility” value (Table 10 (updated)) was determined as 0.76 mg/mL.

With `CN(C)CCc1c[nH]c2cccc(O)c12.O=C(O)c1ccccc1` [BEN Pattern 1, Psilocin benzoate], the “Average Solubility” value worked out at 5.0 mg/mL under setting [1] and 5.0 mg/mL (Table 10 (updated)). Besides, the Solubility by setting is: (Table 9, 25° C., 5 hours, maximum anticipated concentration 10 mg/mL free base, listed as Psilocin benzoate BEN Pattern 1) 5.0 mg/mL and 4.9 mg/mL; (Table 10 (updated), listed as Psilocin benzoate BEN Pattern 1) 5.0 mg/mL and 4.9 mg/mL.
